Assay results: ChEMBL document CHEMBL3286167 (J Med Chem, 2014)
Active and inactive are the calls of the source. The rule behind the calls is not given here.

Sequences of proteins named here, by UniProt entry; tags and fusion partners are left off.
UniProt P20789, whole entry: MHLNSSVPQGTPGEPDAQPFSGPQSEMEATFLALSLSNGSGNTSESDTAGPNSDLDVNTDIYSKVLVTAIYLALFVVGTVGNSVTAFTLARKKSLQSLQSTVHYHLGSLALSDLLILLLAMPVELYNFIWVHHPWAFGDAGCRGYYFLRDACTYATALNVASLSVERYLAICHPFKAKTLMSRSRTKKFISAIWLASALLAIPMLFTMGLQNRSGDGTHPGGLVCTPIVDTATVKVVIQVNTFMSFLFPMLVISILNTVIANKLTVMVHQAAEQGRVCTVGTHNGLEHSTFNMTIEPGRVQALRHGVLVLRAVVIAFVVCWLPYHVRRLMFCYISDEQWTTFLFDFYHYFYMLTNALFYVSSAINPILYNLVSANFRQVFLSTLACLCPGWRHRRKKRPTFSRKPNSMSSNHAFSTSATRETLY

Assays:
[1] = biological target: Neurotensin receptor type 1 (Rattus norvegicus) (UniProt P20789); experiment: Antagonist activity at rat NTS1 stably expressed in CHOK1 cells assessed as inhibition of NT-induced calcium release by FLIPR assay; type: functional, cell-based; conditions: CHO-K1
Summary of the method: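 Rat NTS1 CHO-k1 cells, plated at 30000/well on the assay day. Cells were loaded with Calcium 5 dye (1:40 in HBSS, 20 mM HEPES, 2.5 mM probenecid, pH 7.4) for 45 min at 37 °C, then preincubated with compound for 15 min. […] Fluorescence (ex 485/em 525 nm) read for 60 s on FlexStation II; three-parameter logistic fit; at least three experiments in duplicate.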

[2] = biological target: T1, Neurotensin receptor type 2 (Rattus norvegicus) (UniProt Q63384); experiment: Agonist activity at rat NTS2 stably expressed in CHOK1 cells assessed as induction of calcium release by FLIPR assay relative to SR142948a; type: functional, cell-based; conditions: CHO-K1
T1 sequence (whole entry): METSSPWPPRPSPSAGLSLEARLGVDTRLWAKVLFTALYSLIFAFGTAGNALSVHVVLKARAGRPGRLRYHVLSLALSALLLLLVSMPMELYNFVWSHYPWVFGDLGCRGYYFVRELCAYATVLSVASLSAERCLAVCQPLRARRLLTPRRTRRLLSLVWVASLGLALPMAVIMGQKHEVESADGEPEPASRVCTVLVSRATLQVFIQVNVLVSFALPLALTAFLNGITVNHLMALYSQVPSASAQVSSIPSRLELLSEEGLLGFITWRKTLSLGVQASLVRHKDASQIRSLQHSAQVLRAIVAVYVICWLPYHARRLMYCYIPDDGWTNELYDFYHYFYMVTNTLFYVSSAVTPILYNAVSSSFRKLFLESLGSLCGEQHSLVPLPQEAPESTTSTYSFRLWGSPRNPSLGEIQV
Summary of the method: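 Rat NTS2 expressed in CHO-k1 cells, plated at 25000/well the day before the assay. Cells were loaded with Calcium 5 dye (1:20 in HBSS, 20 mM HEPES, 2.5 mM probenecid, pH 7.4) for 45 min at 37 °C, then pretreated with 10% DMSO added 1:10. Full-log compound dilutions were read on FLIPR Tetra every second for 100 s. Emax is expressed as % of the full-agonist standard; EC50 from a three-parameter logistic fit; at least three experiments in duplicate.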

SMILES	Ke [1]	Emax [2]
COc1cccc(OC)c1-c1cc(C(=O)NC2C3CC4CC(C3)CC2C4)nn1-c1ccnc2cc(Cl)ccc12 (stereo not drawn)	inactive	inactive
C[C@@H]1CN([C@H]2CC[C@](C#N)(c3ccc(F)cc3)CC2)CC[C@]1(C(=O)O)c1ccccc1 [LEVOCABASTINE]	inactive	–
